Our source for the IC50 values is article PMC10044120, “Potent and selective covalent inhibition of the papain-like protease from SARS-CoV-2” (Nature Communications, 2023).

The target of one assay is SARS-CoV-2 PLpro (Severe acute respiratory syndrome coronavirus 2, UniProt P0DTD1). Kind of assay: biochemical.
Assay [1] addresses full-length SARS-CoV-2 hemagglutinin (HA)-Nsp3 (Severe acute respiratory syndrome coronavirus 2, UniProt P0DTD1). Kind of assay: biochemical.

As a reminder, the IC50 is the midpoint of a concentration-inhibition curve. Turning to `COC(=O)/C=C/C(=O)NNC(=O)CCc1ccccc1C(=O)N[C@H](C)c1cccc2ccccc12` [Compound 7, methyl(R,E)-4-(2-(3-(2-((1-(naphthalen-1 yl)ethyl)carbamoyl)phenyl)propanoyl)hydrazineyl)-4-oxobut-2-enoate], the half-maximal inhibitory concentration (IC50) was determined as 37 nM on SARS-CoV-2 PLpro and 49 nM in assay [1].
